# Antibody variant affinities, Ab-91 heavy chain, assay 2

Reference: Engelhart et al. 2022, doi:10.1038/s41597-022-01779-4. File: FLAb, binding data.

Target peptide (SARS-CoV-2 spike, HR2 region): PDVDLGDISGINAS

Parent scFv Ab-91: VL joined to VH by a (GGGGS)3 linker. Changes lie in the heavy chain CDRs alone.
VL: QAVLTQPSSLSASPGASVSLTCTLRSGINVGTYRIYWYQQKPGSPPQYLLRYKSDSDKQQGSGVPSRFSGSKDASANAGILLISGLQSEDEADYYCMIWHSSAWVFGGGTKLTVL
VH: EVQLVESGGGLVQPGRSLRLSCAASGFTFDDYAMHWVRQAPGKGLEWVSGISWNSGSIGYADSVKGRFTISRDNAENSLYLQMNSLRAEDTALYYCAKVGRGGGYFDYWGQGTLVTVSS

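Phage display of a naive human antibody library on the peptide gave the parent. AAYL51 was designed without a model: most single CDR substitutions and a random sample of double and triple ones. The scFvs were displayed on barcoded MATa yeast, the peptide on MATalpha yeast. Mating (16 h, 30 °C) was followed by selection of diploids and sequencing of their barcodes. Scores were corrected for input abundance and mapped to Kd with protein pairs of known affinity run in the same pool. Each pool was mated in three replicate cultures.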

Substitutions are numbered in sequence along the VH above, starting at 1 (not Kabat). This list gathers variants with a substitution at G56 (VH, numbered from residue 1). The Kd shown is the geometric mean over detected replicates; a lower Kd is a better binder. A pair that was not seen in any replicate is written "no signal"; this usually means weak binding, but a binder can also be missed.

changes,Kd,detected
W53F G56W,280 µM,2/3
G56D G104T,1.0 mM,1/3
G56F I58W V99T,460 nM,1/3
G56S I58H F106M,1.1 mM,2/3
W53Y G56E F106G,no signal,0/3
G56H S57R G59H,37 µM,2/3
G56F S57T D107W,960 µM,3/3
W53Y G56F V99W,180 nM,3/3
H35A G56K R101M,310 µM,2/3
D30T W53L G56K,52 nM,3/3
D30A G56V,140 µM,2/3
G56A S63T R101V,36 nM,3/3
F27W G56F,360 nM,1/3
G56F,33 µM,3/3
G56S G59E G100M,240 µM,1/3
G50V I51A G56I,60 µM,1/3
F29I G50E G56W,360 µM,1/3
G56E G100A G104R,8.1 µM,1/3
F27A N54E G56S,no signal,0/3
G56T F106G D107M,no signal,0/3
D31W I51S G56W,no signal,0/3
H35W G56A S57G,no signal,0/3
Y32I G56M R101N,no signal,0/3
F27N F29C G56D,64 µM,1/3
M34K G56A V64F,24 µM,1/3
T28C D31W G56Y,no signal,0/3
G56H,98 nM,3/3
N54H G56W I58W,330 µM,3/3
A33P N54Y G56T,110 µM,2/3
G50K S55C G56R,92 µM,3/3
G56Y V99T Y108M,20 nM,3/3
T28G G56R D62M,250 µM,3/3
I51V S55N G56R,6.3 µM,2/3
D31P A33L G56F,15 nM,3/3
D31C G56T G59Q,360 µM,1/3
G56H A61R S63C,760 nM,2/3
T28D G56R Y60V,no signal,0/3
G56N K65H G100M,9.7 µM,3/3
F27V A33E G56R,no signal,0/3
G56V Y60F G100A,13 µM,3/3
N54Q G56V,no signal,0/3
M34K G56K G103Q,15 µM,1/3
G56L R101D G103W,12 µM,1/3
F29R G56N G59P,250 µM,2/3
G56N I58M K65G,no signal,0/3
G56M S57D I58R,2.1 nM,3/3
N54C G56Y G59Q,16 µM,2/3
N54D G56F V64W,660 nM,3/3
F27H W53P G56P,no signal,0/3
G56W A61Y G102M,9.5 µM,1/3
G56W D62P S63P,270 nM,3/3
G56F D62S,110 nM,2/3
G56K D62S,410 nM,3/3
G50Y G56P G100I,260 µM,1/3

The closing 9 entries, repeated:

changes,Kd,detected
G56M S57D I58R,2.1 nM,3/3
N54C G56Y G59Q,16 µM,2/3
N54D G56F V64W,660 nM,3/3
F27H W53P G56P,no signal,0/3
G56W A61Y G102M,9.5 µM,1/3
G56W D62P S63P,270 nM,3/3
G56F D62S,110 nM,2/3
G56K D62S,410 nM,3/3
G50Y G56P G100I,260 µM,1/3

Three control strains display no target. For library AAYL51, 21% of the pairings with them gave a signal, with a median of 34 µM and one signal in twenty below 1.8 µM, so weak values seen in few replicates may be background.